Measured values reported in PubChem BioAssay AID504634 (The Scripps Research Institute Molecular Screening Center, 2011).
The entries are a selection whose mix differs from that of the whole data set. Calls of active or inactive are those of the source. Rule as the data show it: active = inhibition mostly above about 23% (no sharp cut-off); inactive = mostly below about 18%.

Amino acid sequences for entries named in this document (tags omitted).
UniProt P47898, whole entry, looked up: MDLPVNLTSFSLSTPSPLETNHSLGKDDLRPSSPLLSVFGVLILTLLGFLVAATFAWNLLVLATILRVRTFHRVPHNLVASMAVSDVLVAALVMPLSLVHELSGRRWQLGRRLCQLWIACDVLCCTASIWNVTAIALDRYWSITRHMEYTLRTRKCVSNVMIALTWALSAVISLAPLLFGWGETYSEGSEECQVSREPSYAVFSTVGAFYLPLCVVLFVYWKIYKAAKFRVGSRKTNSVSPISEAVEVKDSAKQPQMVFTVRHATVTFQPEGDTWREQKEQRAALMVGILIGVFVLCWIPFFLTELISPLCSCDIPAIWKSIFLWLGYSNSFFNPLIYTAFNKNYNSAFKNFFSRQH

What follows are compounds tested against 5-hydroxytryptamine receptor 5A (Homo sapiens) (UniProt P47898) (assay: HTR5A inverse agonists in luminescence cell assay, primary screen, counter-screen for OPRM1-OPRD1 heterodimer inverse agonist project, full-deck HTS (AID 504634;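 also: 0% = cells with DMSO and 100% = no-cell wells with DMSO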)). Details: HTR5A cell line, inverse agonism, at 9.3 µM, hits give high values.
With `CCOC(=O)CSc1nc2ccccc2n1CC(=O)NC(C)(C)C` the inhibition was inactive: -15.9%.
`O=C(Cn1cnc2ccccc21)Nc1cccc(S(=O)(=O)N2CCCC2)c1` was tested, and the inhibition was inactive: -19.3%.
`CCN(CC)CCn1cnc2c1c(=O)n(CCOC(=O)c1cc(OC)c(OC)c(OC)c1)c(=O)n2C` was tested, and the inhibition was inactive: -7.35%.
`Cn1c(=O)c2c(ncn2CCN(CCO)Cc2ccccc2)n(C)c1=O` was tested, and the inhibition was inactive: 15.2%.
In the case of `C=CCOC(=O)C1=C(C)N=C2SCCC(=O)N2C1/C=C/c1ccccc1` (stereo unspecified), the inhibition is reported as inactive: 2.87%.
For `O=[As](O)(c1cccc(O)c1)c1cccc(O)c1`, the inhibition was inactive: -4.36%.
For `COc1ccc(CNc2nc3ccccc3n2CCN2CCOCC2)cc1`, the inhibition was inactive: -5.45%.
With `Cc1cccc(OCC(=O)OC2CN3CCC2CC3)c1` (stereo unspecified) the inhibition was inactive: 20.2%.
For `CCc1ccc(NC(=O)Cn2c3[n+](c4c(F)c(F)ccc42)CCCCC3)cc1`, the inhibition was inactive: 9.81%.
With `CC(C)(C)NC(=O)Cn1c(-c2nonc2N)nc2ccccc21` the inhibition was inactive: 14.7%.
In the case of `O=[N+]([O-])c1ccc2c(c1)nc1n2CCN(C2CCCCC2)C1`, the inhibition is reported as inactive: -1.64%.
With `COC(=O)Cn1c(=N)n(CCN2CCCCC2)c2ccccc21` the inhibition was inactive: 0.67%.
For `Cn1c(=O)c2ncn(CC(=O)NCCOc3ccccc3)c2n(C)c1=O`, the inhibition was inactive: 18.4%.
With `CC(C(=O)Nc1ccccc1C(=O)O)n1c(C(F)(F)F)nc2ccccc21` (stereo unspecified) the inhibition was inactive: 4.46%.
`CCN(CC)CCn1cnc2c1c(=O)[nH]c(=O)n2Cc1ccccc1` was tested, and the inhibition was inactive: -6.79%.
With `Cc1ccc(S(=O)(=O)c2nnn3c2nc(NC2CCN(Cc4ccccc4)CC2)c2ccccc23)cc1C` the inhibition was inactive: -13.6%.
With `CN1CCC(N(C)c2nc(-c3ccccc3)nc3ccccc23)CC1` the inhibition was inactive: 4.38%.
In the case of `C[C@H](NC(=O)N1CCn2c1nc1ccccc12)C(=O)NCC1CCCO1` (stereo partly specified), the inhibition is reported as inactive: 2.09%.
`CCC(=O)Nc1ccc(NC(=S)NC(=O)/C=C/c2ccco2)cc1` was tested, and the inhibition was inactive: 0.4%.
In the case of `CC(C(=O)N1CCc2ccccc21)n1cnc2c1c(=O)n(C)c(=O)n2C` (stereo unspecified), the inhibition is reported as inactive: 0.44%.
In the case of `CN1CCN(C(=O)Cn2c(C(F)(F)F)nc3ccccc32)CC1`, the inhibition is reported as inactive: 21.1%.
With `c1ccc(Cn2c(CNc3nc4ccccc4n3CCN3CCCCC3)nc3ccccc32)cc1` the inhibition was inactive: -10.5%.
With `O=C(c1ccccc1)N1CCn2c1nc1ccccc12` the inhibition was inactive: 8.55%.
In the case of `O=C(OC1CN2CCC1CC2)c1ccc(Cl)cc1` (stereo unspecified), the inhibition is reported as inactive: 11.8%.
`Cn1cccc1/C=N/NC(=O)Cn1cnc2ccccc21` was tested, and the inhibition was inactive: 4.68%.
`COCCCNC(=O)Cn1cnc2c(NCc3ccccc3)ncnc21` was tested, and the inhibition was inactive: 3.09%.
